Experimental data taken from patent EP0216127B1, “6-Phenoxymethyl-4-hydroxytetrahydropyran-2-ones, process for their preparation, their use as medicines, pharmaceutical compositions and intermediates” (HOECHST AKTIENGESELLSCHAFT, priority 1985, dated 1987).
Where two headings read alike, the source gives them in different places.

The chains behind the UniProt entries cited, without tags or fusion partners.
UniProt P51639, whole entry: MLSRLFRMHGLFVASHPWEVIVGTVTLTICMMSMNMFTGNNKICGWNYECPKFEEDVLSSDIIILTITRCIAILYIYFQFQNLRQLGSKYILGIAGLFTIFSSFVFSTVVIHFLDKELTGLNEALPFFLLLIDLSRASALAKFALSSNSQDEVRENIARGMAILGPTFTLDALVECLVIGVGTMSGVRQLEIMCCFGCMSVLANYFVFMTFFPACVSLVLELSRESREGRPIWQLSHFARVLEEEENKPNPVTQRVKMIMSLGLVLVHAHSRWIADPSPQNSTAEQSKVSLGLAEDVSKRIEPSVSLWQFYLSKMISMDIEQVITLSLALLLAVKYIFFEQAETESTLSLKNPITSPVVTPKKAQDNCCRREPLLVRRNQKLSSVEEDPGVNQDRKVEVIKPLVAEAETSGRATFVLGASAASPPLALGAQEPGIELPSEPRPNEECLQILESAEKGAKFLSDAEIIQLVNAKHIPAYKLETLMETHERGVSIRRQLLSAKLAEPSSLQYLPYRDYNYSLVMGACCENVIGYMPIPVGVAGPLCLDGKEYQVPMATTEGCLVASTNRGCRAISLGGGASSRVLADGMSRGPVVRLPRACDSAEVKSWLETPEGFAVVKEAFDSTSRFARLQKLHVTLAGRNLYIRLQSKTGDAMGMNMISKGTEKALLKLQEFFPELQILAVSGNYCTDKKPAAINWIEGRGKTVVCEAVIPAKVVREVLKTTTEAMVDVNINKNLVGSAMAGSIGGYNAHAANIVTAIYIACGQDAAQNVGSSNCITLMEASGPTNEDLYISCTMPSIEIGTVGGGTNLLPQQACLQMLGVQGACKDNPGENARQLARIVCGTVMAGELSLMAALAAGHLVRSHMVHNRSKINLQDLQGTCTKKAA
UniProt Q01237, whole entry: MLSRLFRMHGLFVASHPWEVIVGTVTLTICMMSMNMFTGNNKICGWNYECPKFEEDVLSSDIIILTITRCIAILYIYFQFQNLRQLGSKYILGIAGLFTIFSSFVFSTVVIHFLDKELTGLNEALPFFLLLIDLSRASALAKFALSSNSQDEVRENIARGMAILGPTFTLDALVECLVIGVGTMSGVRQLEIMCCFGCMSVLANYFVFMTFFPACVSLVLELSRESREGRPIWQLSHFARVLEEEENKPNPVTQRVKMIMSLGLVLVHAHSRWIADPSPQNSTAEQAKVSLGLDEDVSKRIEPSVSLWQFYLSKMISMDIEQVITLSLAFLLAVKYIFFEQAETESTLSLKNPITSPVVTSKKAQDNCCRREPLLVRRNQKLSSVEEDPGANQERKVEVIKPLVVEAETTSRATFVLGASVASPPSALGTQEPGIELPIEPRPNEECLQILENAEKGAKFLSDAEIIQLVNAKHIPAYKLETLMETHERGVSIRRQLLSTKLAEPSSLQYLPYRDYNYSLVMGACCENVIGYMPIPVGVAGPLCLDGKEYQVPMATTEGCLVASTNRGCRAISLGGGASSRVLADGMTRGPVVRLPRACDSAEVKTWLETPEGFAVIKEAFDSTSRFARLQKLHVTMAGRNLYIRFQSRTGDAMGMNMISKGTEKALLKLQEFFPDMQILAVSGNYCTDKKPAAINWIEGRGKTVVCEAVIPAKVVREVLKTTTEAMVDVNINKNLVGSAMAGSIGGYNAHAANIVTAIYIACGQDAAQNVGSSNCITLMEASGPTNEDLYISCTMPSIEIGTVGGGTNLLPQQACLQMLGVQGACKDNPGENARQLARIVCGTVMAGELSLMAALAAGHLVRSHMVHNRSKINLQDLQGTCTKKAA

How the values were obtained:
HMG-CoA-Reduktase [1] = target: HMG-CoA-Reduktase (Rattus norvegicus, UniProt P51639); assay: Inhibition of HMG-CoA reductase activity in solubilised enzyme preparations from rat liver microsomes; conditions: read-out: IC50-Wert M, solubilised enzyme from liver microsomes of cholestyramine-induced rats, substrate (S,R)14C-HMG-CoA, mean of 3 parallel samples
Text: 1) Inhibierung der HMG-CoA-Reduktase-Aktivität an solubilisierten Enzympräparationen aus Ratten-Lebermikrosomen
Die HMG-CoA-Reduktase-Aktivität wurde an solubilisierten Enzympräparationen aus Lebermikrosomen von Ratten gemessen, die nach Umstellung im Tag-Nacht-Rhythmus mit Cholestyramin (@Cuemid) induziert wurden. Als Substrat diente (S,R)^14C-HMG-CoA, die Konzentration von NADPH wurde während der Inkubation durch ein regenerierendes System aufrechterhalten. Die Abtrennung von ^14C-Me- valonat von Substrat und anderen Produkten (z.B. ^14C-HMG) erfolgte über Säulenelution, wobei das Elutionsprofil jeder Einzelprobe ermittelt wurde. Auf die ständige Mitführung von ^3H-Mevalonat wurde verzichtet, weil es bei der Bestimmung um die Relativangabe der Hemmwirkung handelt. In eine Versuchsreihe wurden jeweils die enzymfreie Kontrolle, der enzymhaltige Normalansatz (= 100%) und solche mit Präparatezusätzen zusammen behandelt. Jeder Einzelwert wurde als Mittelwert aus 3 Parallelproben gebildet. Die Signifikanz der Mittelwertsunterschiede zwischen präparatefreien und präparatehaltigen Proben wurde nach dem t-Test beurteilt. Nach der oben beschriebenen Methode wurden von den erfindungsgemäßen Verbindungen z.B. folgende Hemmwerte auf die HMG-CoA-Reduktase ermittelt (IC50-Wert M = molare Konzentration der Verbindung, die für eine 50%ige Hemmung erforderlich ist): […]

HMG-CoA-Reduktase [2] = target: HMG-CoA-Reduktase (Mus musculus, UniProt Q01237); assay: Suppression or inhibition of HMG-CoA reductase in cell cultures of fibroblasts (L cells); conditions: 3 h incubation of confluent L-Zellen in lipoprotein-free medium, molar concentration for 50% inhibition of HMG-CoA reductase activity
Text: 2. Supprimierung bzw. Inhibierung der HMG-CoA-Reduktase in Zellkulturen von Fibroblasten
Monolayers von Fibroblasten (L-Zellen) in lipoproteinfreiem Nährmedium wurden mit entsprechenden Konzentrationen der Prüfsubstanzen eine bestimmte Zeit (z.B. 3 Stunden) inkubiert, dann wurde die HMG-CoA-Reduktaseaktivität der Zellen, modifiziert nach Chang et al. (J. Biol. Chem. 256, 6174 (1981) bestimmt. Dazu wurden die Zellextrakte mit D, L [^3H]-HMG-CoA inkubiert und das unter der Einwirkung der vorhandenen HMG-CoA-Reduktaseaktivität aus den Zellen gebildete Produkt [3H]-Mevalonat nach Cyclisierung zu [^3H]-Mevalonolacton dünnschichtchromatographisch vom Ausgangsprodukt getrennt und unter Verwendung eines internen Standards von ^14C-Mevalonat die Menge des in der Zeiteinheit gebildeten [3H]-Mevalonats, bezogen auf Zellproteinmenge bestimmt. Die unter Zusatz einer bestimmten Konzentration eines Prüfpräparates gefundene HMG-CoA-Reduktaseaktivität der Zellkultur wurde prozentual auf jene einer gleichbehandelten ohne Prüfpräparat, jedoch gleicher Lösungsmittelkonzentration, bezogen.
Unter der Bedingung einer dreistündigen Inkubationszeit konfluenter L-Zellen im lipoproteinfreien Nährmedium mit den untersuchten Verbindungen wurden folgende für eine 50%ige Hemmung der HMG-CoA-Reduktaseaktivität (ICso) erforderliche molare Konzentration der Prüfpräparate ermittelt: […]

IC50 (HMG-CoA-Reduktase [1]) [nM]	IC50 (HMG-CoA-Reduktase [2]) [nM]	IC50 (HMG-CoA-Reduktase [1]; tested form: free lactone) [nM]	IC50 (HMG-CoA-Reduktase [2]; tested form: free lactone) [nM]	Structure (SMILES)
360	200000	–	–	Cc1cc(C)c(OC[C@@H]2C[C@@H](O)CC(=O)O2)c(CCCOc2ccc(F)cc2)c1
–	–	90	80000	Cc1cc(C)c(OC[C@@H]2C[C@@H](O)CC(=O)O2)c(C(c2ccc(F)cc2)c2cccc(C(F)(F)F)c2)c1 (some centres unmarked)
–	–	95	–	Cc1cc(C)c(OC[C@@H]2C[C@@H](O)CC(=O)O2)c(C(c2ccc(F)cc2)C2CCCCC2)c1 (some centres unmarked)
